Source: patent publication EP3760204A1, “MEDICAMENT FOR PREVENTION OR TREATMENT OF HUNTINGTON'S DISEASE” (Medizinische Universität Graz, priority 2019, dated 2021)

System: TFEB
Details: shPXR HepG2 cells, 50µM; Figure 7D
Description: Western blot: Protein lysate was generated by homogenization (Magnalyzer, Roche) of tissue or cell pellet in homogenization buffer with protease and phosphatase inhibitors (Halt tablets, Invitrogen). After homogenization, lysates were sonicated 2x for 10" each. Lysates were then centrifuged for 10 min at 4°C and the supernatant was subjected to BCA protein estimation (Thermo Fisher). Equal amounts of lysate were loaded to self-made acrylamide gels. After separation, the protein was transferred to a PVDF membrane with semi-dry transfer.

**Q.** Which “TFEB protein expression in shPXR cells” value does the source give for `CO[C@H]1/C=C/O[C@@]2(C)Oc3c(C)c(O)c4c(O)c(c(/C=N/N5CCN(C)CC5)c(O)c4c3C2=O)NC(=O)/C(C)=C\C=C\[C@H](C)[C@H](O)[C@@H](C)[C@@H](O)[C@@H](C)[C@H](OC(C)=O)[C@@H]1C` [rifampicin] here?
**A.** Its value is “not inducible”.
